In this assay the test system is Zika virus. Kind of assay: Antiviral activity against ZIKV PF-25013-18 infected in human A549 cells assessed as reduction in viral RNA replication at 2 uM by RT-qPCR analysis. Format: functional, organism-based.

Active and inactive are the calls of the source. The calls are words filed in the database; no cut-off is given here.

Turning to `COc1ccc(C(=O)O[C@H]2[C@H](O[C@@H]3[C@@H](OC(C)=O)[C@H](O[C@H]4C[C@H]5[C@@H]6CC=C7C[C@@H](O)CC[C@]7(C)[C@H]6CC[C@]5(C)[C@@]4(O)[C@H](C)C(=O)CCC(C)C)OC[C@@H]3O)OC[C@@H](O)[C@@H]2O)cc1`, the result was Active.
